Experimental data as given in patent publication US20240189276A1, “COMPOSITIONS COMPRISING LACTATE DEHYDROGENASE-A INHIBITORS AND METHODS OF PRODUCTION AND USE THEREOF” (Southwestern Oklahoma State University, priority 2022, published 2024).

Columns and labels:
[1] = tested on: FC1199 pancreatic cancer cells; assay: Cytotoxicity (viability/proliferation/necrosis) assay, FC1199; type: cell-based, mouse; conditions: read-out: Cytotoxicity IC50 ± SD, FC-1199; FC-1199, 48 hr
HPNE cell lines = assay: Cytotoxicity assay in hTERT immortalized normal pancreatic cells; type: cell-based, human; conditions: read-out: Cytotoxicity IC50 ± SD, HPNE Normal, 48 hr

## O=C(CC(C(=O)O)c1ccc(C(F)(F)F)cc1)Nc1ccc(C(=O)N2CCOCC2)cc1 (stereo not shown)
[1]
  IC50: > 50 µM
HPNE cell lines
  IC50: > 50 µM

## COC(=O)C(CC(=O)Nc1ccc(C(=O)N2CCOCC2)cc1)c1ccc(C(F)(F)F)cc1 (stereo not shown)
[1]
  IC50: > 50 µM
HPNE cell lines
  IC50: > 50 µM
